Data published in PubChem BioAssay AID1515 (The Scripps Research Institute Molecular Screening Center, 2009).
The list shows a part of the results, in another mix than the full data. The source made the active and inactive calls.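 The calls were made as follows: active = inhibition above the campaign mean of all tested compounds plus 3 SD (cut at about 14% in these data); inactive = the rest.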

By UniProt entry, the sequences of proteins in these tests, tags left out.
UniProt O75884, whole entry: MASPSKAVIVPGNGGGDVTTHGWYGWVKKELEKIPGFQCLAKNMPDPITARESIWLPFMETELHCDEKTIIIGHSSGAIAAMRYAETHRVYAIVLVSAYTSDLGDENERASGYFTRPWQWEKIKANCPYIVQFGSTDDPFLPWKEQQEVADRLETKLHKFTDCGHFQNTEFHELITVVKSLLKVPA

Target: Serine hydrolase RBBP9 (Homo sapiens) (UniProt O75884)
Experiment: blockers of RBBP9 serine hydrolase labeling – biochemical, fluorescence polarization, FP-Rh probe, HTS, primary screen (AID 1515);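 also: plate controls were DMSO wells with RBBP9 for no effect and wells lacking RBBP9 protein for full effect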
Conditions: recombinant RBBP9, FP-Rh probe fluorescence polarization; at 7.94 µM; active compounds read high

Row | SMILES | inhibition
1 | CC(C)(C)c1ccc(OP(C)(=O)O)cc1 | inactive: -0.67%
2 | COc1ccccc1OP(C)(=O)Nc1ccccc1Br (stereo not drawn) | inactive: -3.6%
3 | CP(=O)(Nc1ccc(Cl)cc1)Oc1ccc(F)cc1 (stereo not drawn) | inactive: -5.85%
4 | CN(C)C(=O)c1c([N+](=O)[O-])cc([N+](=O)[O-])cc1[N+](=O)[O-] | inactive: -5.49%
5 | CCN(CC)CC(O)COC(=O)C(O)(c1ccccc1)C1CCCCC1 (stereo not drawn) | inactive: -5.21%
6 | COc1ccc(OP(C)(=O)Nc2ccc(Br)cc2)cc1 (stereo not drawn) | inactive: -9.12%
7 | COc1ccccc1OP(C)(=O)Nc1c(C)n(C)n(-c2ccccc2)c1=O (stereo not drawn) | inactive: -3.47%
8 | O=C(OCCCN1CCCC1)C(O)(c1ccccc1)C1CCCCC1 (stereo not drawn) | inactive: 1.67%
9 | CP(=O)(Oc1ccccc1)N1CCOC1=O (stereo not drawn) | inactive: -5.04%
10 | CCc1ccc(OP(C)(=O)Nc2cccnc2)cc1 (stereo not drawn) | inactive: -6.94%
11 | CCOC(=O)c1ccc(NP(C)(=O)Oc2ccc(Cl)cc2)cc1 (stereo not drawn) | inactive: -0.28%
12 | CP(=O)(OC12CC3CC(CC(C3)C1)C2)OC12CC3CC(CC(C3)C1)C2 | inactive: -5.36%
13 | Cc1nc2ccc3ccccc3c2o1.O=[N+]([O-])c1cc([N+](=O)[O-])c(O)c([N+](=O)[O-])c1 | inactive: -1.96%
14 | CP(=O)(OCCOc1ccccc1)OCCOc1ccccc1 | inactive: -8.74%
15 | CP(=O)(Nc1ccc(Cl)cc1Cl)Oc1ccccc1 (stereo not drawn) | inactive: -2.25%
16 | Cc1cc(C)cc(OP(C)(=O)Nc2cccc(C(F)(F)F)c2)c1 (stereo not drawn) | inactive: -5.2%
17 | COc1ccccc1OP(C)(=O)Nc1ccc(C)c(C)c1 (stereo not drawn) | inactive: -7.61%
18 | COc1ccc(OP(C)(=O)Nc2ccccc2Br)cc1 (stereo not drawn) | inactive: -5.56%
19 | O=[N+]([O-])c1cc([N+](=O)[O-])c(Nc2ccccn2)c([N+](=O)[O-])c1 | inactive: -1.94%
20 | Cc1c(NP(C)(=O)Oc2ccc(C(C)C)cc2)c(=O)n(-c2ccccc2)n1C (stereo not drawn) | inactive: -5.58%
21 | CP(=O)(Nc1ccccn1)Oc1ccccc1 (stereo not drawn) | inactive: -7.45%

Row | SMILES | inhibition
22 | COc1ccccc1OP(C)(=O)Nc1ccc(C)cc1C (stereo not drawn) | inactive: -8.44%
23 | CCc1ccc(OP(C)(=O)O)cc1 | inactive: -0.52%
24 | COc1ccccc1OP(C)(=O)Nc1ccc(Br)cc1 (stereo not drawn) | inactive: -7.01%
25 | COc1ccc(OP(C)(=O)Nc2ccccn2)cc1 (stereo not drawn) | inactive: -4.97%
26 | CN(C)CCOC(=O)C(O)(c1ccccc1)C1CCCC1 (stereo not drawn) | inactive: -13.6%
27 | O=C(OC1CN2CCC1CC2)c1ccc([N+](=O)[O-])cc1 (stereo not drawn) | inactive: -1.33%
28 | O=C(OCCN1CCN(CCOCc2ccccc2)CC1)C(O)(c1ccccc1)c1ccccc1 | inactive: -1.65%
29 | CP(=O)(Nc1ccccc1F)Oc1ccccc1 (stereo not drawn) | inactive: -10.9%
30 | CC(C)c1ccc(OP(C)(=O)Nc2ccc(SC(F)(F)F)cc2)cc1 (stereo not drawn) | inactive: 1.66%
31 | CCN(CC)CCCOC(=O)C(O)(c1ccccc1)C1CCCCC1 (stereo not drawn) | inactive: -0.06%
32 | CP(=O)(Nc1ccccc1)Oc1ccc(F)cc1 (stereo not drawn) | inactive: -7.48%
33 | CCCCCOc1ccc(NP(C)(=O)Oc2ccc(Cl)cc2Cl)cc1 (stereo not drawn) | inactive: -4.63%
34 | CCOC(=O)c1ccc(NP(C)(=O)Oc2ccc(F)cc2)cc1 (stereo not drawn) | inactive: -12.6%
35 | COc1ccc(OP(C)(=O)Nc2ccc(SC(F)(F)F)cc2)cc1 (stereo not drawn) | inactive: 1.25%
36 | O=[N+]([O-])c1ccc(OP2(=O)COCCO2)cc1 (stereo not drawn) | inactive: 1.74%
37 | O=[N+]([O-])c1cc([N+](=O)[O-])c(NCC2CCS(=O)(=O)C2)c([N+](=O)[O-])c1 (stereo not drawn) | inactive: -2.96%
38 | Cc1cc(-c2cccc3ccccc23)c(C)cn1.O=[N+]([O-])c1cc([N+](=O)[O-])c(O)c([N+](=O)[O-])c1 | inactive: -11.4%
39 | COc1ccc(OP(C)(=O)Nc2cccc(Br)c2)cc1 (stereo not drawn) | inactive: 10.7%
40 | CN(C)CCOC(=O)C(O)(c1ccccc1)C1CCCCC1 (stereo not drawn) | inactive: -7.3%
41 | COc1ccc(NP(C)(=O)Oc2ccccc2OC)cc1 (stereo not drawn) | inactive: -4.58%
42 | CP(=O)(Nc1ccc2c(c1)OCCO2)Oc1ccccc1 (stereo not drawn) | inactive: -9.93%

Row | SMILES | inhibition
43 | Cc1ccccc1NP(C)(=O)Nc1ccccc1C | inactive: -8.58%
44 | CP(=O)(Nc1ccc(SC(F)(F)F)cc1)Oc1ccc(F)cc1 (stereo not drawn) | inactive: -5.19%
45 | CCOP(C)(=S)SCC(=O)NC(C)(CC)C(=O)O (stereo not drawn) | inactive: -2.24%
46 | Cc1nc2ccc3ccccc3c2s1.O=[N+]([O-])c1cc([N+](=O)[O-])c(O)c([N+](=O)[O-])c1 | inactive: -3.31%
47 | O=[N+]([O-])c1cc([N+](=O)[O-])c(-n2nnc3ccccc32)c([N+](=O)[O-])c1 | inactive: -7.01%
48 | COc1ccccc1OP(C)(=O)Nc1c(C)cccc1C (stereo not drawn) | inactive: 1.11%
49 | CN1CCCCC1COC(=O)C1(O)c2ccccc2CCc2ccccc21 (stereo not drawn) | inactive: 3.97%
50 | CP(=O)(Nc1ccc(SC(F)(F)F)cc1)Oc1ccccc1 (stereo not drawn) | inactive: -6.2%
51 | CCCOc1ccc(NP(C)(=O)Oc2ccc(Cl)cc2)cc1 (stereo not drawn) | inactive: 9.15%
52 | O=[N+]([O-])c1cc([N+](=O)[O-])c(Nc2nnnn2CCO)c([N+](=O)[O-])c1 | inactive: -0.57%
53 | CCOC(=O)C(CC)C1=NC(C)(C)Cc2ccccc21.O=[N+]([O-])c1cc([N+](=O)[O-])c(O)c([N+](=O)[O-])c1 (stereo not drawn) | inactive: 2.68%
54 | CC1=NCCc2c1[nH]c1ccccc21.O=[N+]([O-])c1cc([N+](=O)[O-])c(O)c([N+](=O)[O-])c1 | inactive: -10.8%
55 | O=C(O)c1cccc(Nc2c([N+](=O)[O-])cc([N+](=O)[O-])cc2[N+](=O)[O-])c1 | inactive: 4.04%
56 | Cc1ccc(C)c(NP(C)(=O)Oc2ccccc2)c1 (stereo not drawn) | inactive: -9.2%
57 | CP(=O)(Nc1cccc(Br)c1)Oc1ccccc1 (stereo not drawn) | inactive: 0.2%
58 | Cc1cc(C)cc(OP(C)(=O)Nc2ccccn2)c1 (stereo not drawn) | inactive: -3.88%
59 | COc1ccccc1OP(C)(=O)Nc1cccc(Br)c1 (stereo not drawn) | inactive: 0.71%
60 | CCOC(=O)c1ccc(NP(C)(=O)Oc2cc(C)cc(C)c2)cc1 (stereo not drawn) | inactive: -4.1%
61 | Cc1cc(C)cc(OP(C)(=O)Nc2ccc(C)cc2C)c1 (stereo not drawn) | inactive: -3.61%
62 | CCN(CC)CCCOC(=O)C(O)(c1ccccc1)c1ccccc1 | inactive: 3.64%
63 | COc1ccccc1OP(C)(=O)Nc1ccc(C)cc1 (stereo not drawn) | inactive: -12.4%

Row | SMILES | inhibition
64 | Cc1ccc(NP(C)(=O)Oc2ccccc2)c(C)c1 (stereo not drawn) | inactive: 5.47%
65 | CCOC(=O)c1ccc(NP(C)(=O)Oc2ccccc2)cc1 (stereo not drawn) | inactive: -8.2%
66 | Cc1cc(C)cc(OP(C)(N)=O)c1 (stereo not drawn) | inactive: -5.63%
67 | COc1ccccc1OP(C)(=O)Nc1cc(Cl)ccc1C (stereo not drawn) | inactive: -3.67%
68 | COc1ccc(OP(C)(=O)Nc2cccc(F)c2)cc1 (stereo not drawn) | inactive: -8.88%
69 | O=[N+]([O-])c1ccc2c(c1)C=Nc1ccccc1O2 | inactive: -6.07%
70 | CC(C)(C)c1ccc(OP(C)(=O)Nc2ccc(SC(F)(F)F)cc2)cc1 (stereo not drawn) | inactive: 1.19%
71 | Cc1cccc(C)c1OP(C)(N)=O (stereo not drawn) | inactive: 7.79%
72 | CP(=S)(Nn1cnnc1)Oc1ccccc1 (stereo not drawn) | inactive: -1.95%
73 | CP(=O)(Nc1ccccc1Br)Oc1ccccc1 (stereo not drawn) | inactive: -5.39%
74 | COc1ccccc1OP(C)(=O)Nc1ccccc1 (stereo not drawn) | inactive: -6.54%
75 | CCOC(=O)c1ccc(NP(C)(=O)Oc2ccc(OC)cc2)cc1 (stereo not drawn) | inactive: 0.71%
76 | CCOP(C)(=S)SCC(=O)NC(C)C(=O)O (stereo not drawn) | inactive: -6.75%
77 | CP(=O)(Nc1ccccn1)Oc1ccc(Cl)cc1 (stereo not drawn) | inactive: -9.49%
78 | Cc1cccc(C)c1OP(C)(=O)Nc1ccc(SC(F)(F)F)cc1 (stereo not drawn) | inactive: -4.93%
79 | CP(=O)(Nc1ccc(SC(F)(F)F)cc1)Oc1ccc(Cl)cc1 (stereo not drawn) | inactive: -4.3%
80 | CP(=O)(Oc1ccccc1)OC(c1ccccc1)C(F)(F)F (stereo not drawn) | inactive: -1.14%
81 | CCc1ccc(OP(C)(=O)N2CCN(c3ccc([N+](=O)[O-])cc3)CC2)cc1 (stereo not drawn) | inactive: -10.7%
82 | CP(=O)(NC(=O)Nc1ccccc1)Oc1ccccc1 (stereo not drawn) | inactive: -0.38%
83 | Cc1cc(C)cc(OP(C)(=O)Nc2ccc(SC(F)(F)F)cc2)c1 (stereo not drawn) | inactive: -9.45%
